Molecules are shown by their SMILES. The list shows a part of the results, in another mix than the full data. Some of these compounds have results that are not shown, active ones among them. Calls of active or inactive are those of the source. The call rests on the fitted dose curve; in most records, active means well fitted inhibition curve with a large enough effect; inconclusive means small, poorly fitted or top-dose-only effect; inactive means flat fitted curve, though single readings scatter.
On the % scale 0 is the no-effect control and ±100 the full control effect.

The subject of this assay is Chaperonin Mm-Cpn (Methanococcus maripaludis). Nature of the assay: Inhibitors of TCP-1 ring complex (TRiC) of Methanococcus maripaludis (MmCpn): qHTS. Further: nearly all actives have a fitted effect of over 80% in size. The conditions noted are these: purified Mm-Cpn ATPase, ADP Transcreener TR-FRET; at 76.9 µM (top of the series). The text has this:
The eukaryotic chaperonin TRiC (for TCP-1 ring complex) is an essential and conserved chaperone required for the folding and activation of 10-15% of the proteins encoded by the human genome. […] The TRiC complex consist of two stacked 7-9 membered rings, each containing a central cavity. Substrates are folded within the cavity in an ATP-dependent manner. TRiC is a complex of eight different, essential proteins. As each of the genes encoding the eight subunits is essential for cell viability and no protocol has been developed to over-express this enzyme to high levels. That is why several groups studying the TRiC chaperonin have turned to the archaeal homolog of TRiC, Methanococcus maripaludis (Mm-CPN), and have used this enzyme as a model system for the study of the type II chaperonin family. Small molecule inhibitors of the Mm-CPN enzyme would be extremely useful to study the mechanism of chaperonin activity. Importantly, TRiC and Mm-CPN both require ATP hydrolysis for function. Furthermore, the ATP binding sites are highly conserved among these type II chaperonins. This provides us with an easy, well tested and straightforward assay to identify inhibitors of chaperonin activity. The Mm-CPN assay was developed in 1536-well plate format using the HTRF Transcreener ADP assay kit (Cisbio, Bedford, MA). This assay applied the time resolved fluorescence resonance energy transfer (TR-FRET) principle. ATP in the presence of Mm-CPN is converted to ADP + Pi. An antibody labeled with Eu3+-Cryptate specific and bound to ADP labeled with […] (d2) competes with the unlabeled ADP generated by Mm-CPN. The resulting TR-FRET signal is inversely proportional to the concentration of ADP in the sample. In this assay a reduction in TR-FRET signal is observed with ATP turnover. NIH Chemical Genomics Center [NCGC] NIH Molecular Libraries Probe Centers Network [MLPCN] MLPCN Grant: DA030554-01A1 Assay Submitter (PI): Judith Frydman, Stanford University
Purified Mm-CPN was supplied by the laboratory of Dr. Judith Frydman. Protein samples were stored at -80C as single use aliquots. Protein was thawed in ambient temperature water bath and placed on ice once thawed. Buffer was prepared fresh day of screen. The buffer composition below was used to prepare the working solution of the Mm-CPN protein and ATP substrate. The buffer is comprised of 30 mM TRIS pH 7.4, 100mM KCl, 5mM MgCl2, and 1mM DTT. A final concentration of 25nM Mm-CPN and 10uM ATP per well were used in the screen. Instructions according to the manufacturer were followed for the ADP Transcreener kit. Used 1536 well Greiner white, medium binding (MB), solid bottom plates. Plates were read on the PerkinElmer EnVision plate reader using Excitation = 320 nm and Emission = […], 665 nm. Protocol- 1.Dispense 1.5ul per well of working [Mm-CPN] = 50nM (or 75 ng / well) 2.Spin plate at 1000 rpm for 30 seconds 3.23nl of compound transferred per well 4.Incubate at 37degC for 10 minutes 5.Dispense 1.5ul per well of working [ATP] = 20uM 6.Incubate at 37degC for 30 minutes 7.Dispense 3ul per well of Anti-ADP Cryptate / ADP-d2 mix (prepared as instructed by Cisbio) 8.Incubate at ambient for 30 minutes 9.Read using EnVision
Take `O=C(NCC1(N2CCCCC2)CCCCC1)c1cc([N+](=O)[O-])ccc1Cl`: the activity, negative = inhibition is inactive: 0.183%.

As for `CN1[C@@H]2CC[C@H]1CC(OC(=O)C(O)(c1ccccc1)c1ccccc1)C2` (some centres undefined), the activity, negative = inhibition is inactive: 0.227%. For `CCN(CC)CC(C)C(C)OC(=O)C(O)(c1ccccc1)c1ccccc1` (centres undefined) the value was inactive: -3.25%; for `COc1cc(SC)ccc1C(=O)NCC1(N(C)C)CCCCC1`, inactive: -0.0144%. For `CC(C)N1C(=O)CC2(CCN(CCOC(=O)C(O)(c3ccccc3)c3ccccc3)CC2)C1=O`, the activity, negative = inhibition is inactive: 1.44%. For `Cc1ccc(C(=O)NCC2(N3CCCCC3)CCCCC2)cc1` the value was inactive: -1.77%; for `Cc1ccccc1C(=O)NCC1(N2CCCCC2)CCCCC1`, inactive: -2.01%; for `CN(C)C1CCCC1OC(=O)C(O)(c1ccccc1)c1ccccc1` (centres undefined), inactive: 1.9%. For the compound `CN(C)c1ccc(C(=O)NCC2(N(C)C)CCCCC2)cc1`, the activity, negative = inhibition is inactive: -0.845%. In the case of `C=CCN1CCN(CCOC(=O)C(O)(c2ccccc2)c2ccccc2)CC1`, the activity, negative = inhibition was inactive: -0.775%.

Regarding `O=C(NCC1(N2CCCCC2)CCCCC1)c1cc(F)c(F)cc1Cl`, the activity, negative = inhibition was inactive: -1.71%. The value for `COc1ccc(C(=O)NCC2(N(C)C)CCCCC2)cc1` was inactive: -0.74%; that for `Cc1cc(C(=O)NCC2(N3CCCCC3)CCCCC2)ccc1[N+](=O)[O-]` was inactive: -1.65%; that for `CCN1CCCC(OC(=O)C2(O)c3ccccc3C=Cc3ccccc32)C1` (centres undefined) was inactive: 2.59%. For the compound `O=C(NCC1(N2CCCCC2)CCCCC1)c1cccc(Br)c1`, the activity, negative = inhibition is inactive: 3.57%.

`CN(C)C1(CNC(=O)c2ccc(Br)cc2)CCCCC1`: the activity, negative = inhibition is inactive: -0.954%. For the compound `COc1cc(C(=O)NCC2(N(C)C)CCCCC2)c([N+](=O)[O-])cc1OC`, the activity, negative = inhibition was inactive: -8.8%. In the case of `COc1cccc(C(=O)NCC2(N3CCCCC3)CCCCC2)c1`, the activity, negative = inhibition was inactive: 0.671%. Turning to `COc1ccc(Cl)cc1C(=O)NCC1(N(C)C)CCCCC1`, the activity, negative = inhibition is inactive: 1.99%. Consider `O=C(NCC1(N2CCCCC2)CCCCC1)c1cccc(Cl)c1`, for which the activity, negative = inhibition is inactive: -0.127%. The value for `O=C(OC1CN2CCC1CC2)C(CO)(c1ccccc1)c1ccccc1` (centres undefined) was inactive: 0.147%; that for `COc1ccc(Br)c(C(=O)NCC2(N3CCCCC3)CCCCC2)c1` was inactive: -7.44%. The value for `CC(C)Oc1ccc(C(=O)NCC2(N(C)C)CCCCC2)cc1` was inactive: -0.126%. Take `CN(C)c1cccc(C(=O)NCC2(N(C)C)CCCCC2)c1`: the activity, negative = inhibition is inactive: -0.144%.

The values are drawn from PubChem BioAssay AID504842 (National Center for Advancing Translational Sciences (NCATS), 2011).
